In US6660310B2, “Method to infuse fresh fruits and vegetables with an agent” (American Moxie LLC, priority 2000, dated 2003) one finds Kd data, which are given here for one substance.

The conditions of the test: read-out: KD (binding affinity); assay characteristic of the radioligand; rat prostate cytosol.

As usually defined, the Kd is the free concentration of one partner at which half of the binding sites on the other are occupied at equilibrium, for simple one-to-one binding. For [^3H] Methyltrienolone (R1881), the Kd worked out at 4 nM.
